According to publication PMC12865133, “Macrocyclic Molecular Glues for the 14‐3‐3/ChREBP Interaction: Affinity and Cooperativity in an Inverse Relationship” (Angewandte Chemie (International Ed. in English), 2025):

Biological target: T1, 14-3-3γ (Homo sapiens, UniProt P61981)
T1 sequence (P61981 1-247): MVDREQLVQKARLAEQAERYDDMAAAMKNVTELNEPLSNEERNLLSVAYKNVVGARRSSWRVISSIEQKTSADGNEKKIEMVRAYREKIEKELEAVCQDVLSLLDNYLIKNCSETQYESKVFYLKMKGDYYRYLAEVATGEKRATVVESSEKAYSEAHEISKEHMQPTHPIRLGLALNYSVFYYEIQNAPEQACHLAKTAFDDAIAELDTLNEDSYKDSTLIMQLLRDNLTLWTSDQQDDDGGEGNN
Assay: Isothermal titration calorimetry, peptide titrated to 14-3-3γ
Type: binding
Conditions: ITC, 200 μM peptide titrated to 20 μM 14-3-3γ, mean ± SD, n=3
Protocol: Final dialysis fluid from protein expression was frozen as 2 mL aliquots to serve as ITC buffer (25 mM HEPES pH 8.0, 100 mM NaCl, 10 mM MgCl2, 500 µM TCEP). 14-3-3γ and peptide were dissolved and diluted in this buffer to 20 μM and 200 μM, respectively. Samples were degassed for 10 min prior to measurement at 450 mmHg. The reference cell was filled with 300 µL degassed MilliQ and the sample cell was filled with 300 µL of peptide or protein mixture. Syringe was loaded with at least 200 µL protein or peptide sample. Measurements were performed on an Affinity ITC LV (TA instruments), with injection size set to 2 µL, stirring speed of 125 rpm and temperature at 25 ̊C. The baseline was automatically adjusted with NITPIC, analysis of data was done in SEDPHAT, and images were produced with GUSSI software. Data and errors represent mean ± SD, n=3 replicates.

Structure (SMILES): NCCCC[C@H](NC(=O)[C@H](Cc1ccc([N+](=O)[O-])cc1)NC(=O)CCNC(=O)C[C@H](CO)NC(=O)[C@H](Cc1ccc([N+](=O)[O-])cc1)NC(=O)[C@@H](N)COP(=O)(O)O)C(N)=O [pepD, reference compound]
- ΔS (25 mM HEPES pH 8.0, 100 mM NaCl, 10 mM MgCl2, 500 µM TCEP, 25 °C): -1.1 ± 1 cal/(mol·K)
- ΔG (pH 8.0, 25 °C): -7.58 ± 0.12 kcal/mol
- ΔH (pH 8.0, 25 °C): -7.9 ± 0.39 kcal/mol
